Measurements reported in PubChem BioAssay (Tox21).
Where “and” joins values, the source holds several entries; their conditions need not be identical. Equal values may be shown once. This is a selection; strong and weak results do not stand in their true shares. Calls of active or inactive are those of the source. Unless noted, calls come from the whole dose curve; as a rule, active = well fitted curve in the direction sought with a large enough effect in the repeat runs; inconclusive = weak or mixed curves; inactive = no such curve, though single readings can be large; an effect the other way counts as inactive or inconclusive. A call without a number means that no potency is given here.

The chains behind the UniProt entries cited, without tags or fusion partners. Where a name states a change or a piece, a line headed by the entry shows the natural chain unless it says otherwise.
UniProt P10275: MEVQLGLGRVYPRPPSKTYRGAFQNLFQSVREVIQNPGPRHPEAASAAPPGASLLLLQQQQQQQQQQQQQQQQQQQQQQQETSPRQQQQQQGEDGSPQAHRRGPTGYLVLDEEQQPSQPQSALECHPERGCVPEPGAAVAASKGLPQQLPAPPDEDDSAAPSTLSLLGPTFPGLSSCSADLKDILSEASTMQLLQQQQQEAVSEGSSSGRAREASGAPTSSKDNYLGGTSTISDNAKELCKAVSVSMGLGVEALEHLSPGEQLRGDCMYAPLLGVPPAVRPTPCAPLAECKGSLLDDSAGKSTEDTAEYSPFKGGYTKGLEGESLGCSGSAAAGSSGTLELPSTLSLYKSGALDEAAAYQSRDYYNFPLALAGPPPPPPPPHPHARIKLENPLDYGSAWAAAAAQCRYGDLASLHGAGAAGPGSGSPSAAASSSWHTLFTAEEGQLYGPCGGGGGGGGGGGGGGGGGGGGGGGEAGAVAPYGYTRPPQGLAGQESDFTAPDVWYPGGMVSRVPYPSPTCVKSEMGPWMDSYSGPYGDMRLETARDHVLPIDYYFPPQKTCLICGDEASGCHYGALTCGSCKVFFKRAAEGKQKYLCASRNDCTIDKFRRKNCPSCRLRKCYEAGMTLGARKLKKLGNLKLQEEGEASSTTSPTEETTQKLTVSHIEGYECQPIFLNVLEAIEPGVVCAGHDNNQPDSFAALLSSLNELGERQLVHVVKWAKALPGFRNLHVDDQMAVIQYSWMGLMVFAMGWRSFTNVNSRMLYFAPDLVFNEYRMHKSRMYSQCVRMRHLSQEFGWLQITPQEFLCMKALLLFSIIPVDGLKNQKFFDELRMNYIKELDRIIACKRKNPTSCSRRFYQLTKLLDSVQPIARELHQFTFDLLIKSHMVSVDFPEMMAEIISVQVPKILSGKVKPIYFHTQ
UniProt P03372, whole entry, looked up: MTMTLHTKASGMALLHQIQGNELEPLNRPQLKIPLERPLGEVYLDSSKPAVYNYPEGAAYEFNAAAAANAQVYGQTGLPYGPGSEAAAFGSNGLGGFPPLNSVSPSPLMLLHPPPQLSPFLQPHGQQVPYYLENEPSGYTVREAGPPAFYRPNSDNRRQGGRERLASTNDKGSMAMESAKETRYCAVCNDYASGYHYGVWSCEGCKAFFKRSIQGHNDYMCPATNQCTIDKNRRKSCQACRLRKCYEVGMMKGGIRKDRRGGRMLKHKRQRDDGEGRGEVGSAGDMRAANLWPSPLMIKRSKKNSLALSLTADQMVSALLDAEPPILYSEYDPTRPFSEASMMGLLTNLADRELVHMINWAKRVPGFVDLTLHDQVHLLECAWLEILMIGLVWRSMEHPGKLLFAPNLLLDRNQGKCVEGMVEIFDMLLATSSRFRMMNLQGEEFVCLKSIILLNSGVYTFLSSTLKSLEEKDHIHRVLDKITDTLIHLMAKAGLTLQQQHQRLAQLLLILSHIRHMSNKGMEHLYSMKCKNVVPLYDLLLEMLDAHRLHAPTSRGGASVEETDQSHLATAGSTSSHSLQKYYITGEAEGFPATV
UniProt P11511: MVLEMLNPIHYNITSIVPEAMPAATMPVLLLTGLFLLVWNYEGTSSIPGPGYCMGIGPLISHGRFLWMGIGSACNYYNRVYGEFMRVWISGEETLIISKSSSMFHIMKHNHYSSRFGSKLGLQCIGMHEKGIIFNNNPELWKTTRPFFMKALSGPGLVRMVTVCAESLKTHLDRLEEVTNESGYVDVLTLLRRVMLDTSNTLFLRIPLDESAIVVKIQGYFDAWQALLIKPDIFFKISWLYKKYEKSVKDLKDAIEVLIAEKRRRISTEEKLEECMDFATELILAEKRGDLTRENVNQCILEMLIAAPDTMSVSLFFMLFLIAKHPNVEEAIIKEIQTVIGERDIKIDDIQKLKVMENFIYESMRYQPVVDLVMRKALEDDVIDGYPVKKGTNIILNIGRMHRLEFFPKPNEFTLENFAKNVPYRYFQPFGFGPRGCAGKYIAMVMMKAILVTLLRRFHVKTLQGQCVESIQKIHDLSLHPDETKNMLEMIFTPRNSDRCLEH
UniProt P35869: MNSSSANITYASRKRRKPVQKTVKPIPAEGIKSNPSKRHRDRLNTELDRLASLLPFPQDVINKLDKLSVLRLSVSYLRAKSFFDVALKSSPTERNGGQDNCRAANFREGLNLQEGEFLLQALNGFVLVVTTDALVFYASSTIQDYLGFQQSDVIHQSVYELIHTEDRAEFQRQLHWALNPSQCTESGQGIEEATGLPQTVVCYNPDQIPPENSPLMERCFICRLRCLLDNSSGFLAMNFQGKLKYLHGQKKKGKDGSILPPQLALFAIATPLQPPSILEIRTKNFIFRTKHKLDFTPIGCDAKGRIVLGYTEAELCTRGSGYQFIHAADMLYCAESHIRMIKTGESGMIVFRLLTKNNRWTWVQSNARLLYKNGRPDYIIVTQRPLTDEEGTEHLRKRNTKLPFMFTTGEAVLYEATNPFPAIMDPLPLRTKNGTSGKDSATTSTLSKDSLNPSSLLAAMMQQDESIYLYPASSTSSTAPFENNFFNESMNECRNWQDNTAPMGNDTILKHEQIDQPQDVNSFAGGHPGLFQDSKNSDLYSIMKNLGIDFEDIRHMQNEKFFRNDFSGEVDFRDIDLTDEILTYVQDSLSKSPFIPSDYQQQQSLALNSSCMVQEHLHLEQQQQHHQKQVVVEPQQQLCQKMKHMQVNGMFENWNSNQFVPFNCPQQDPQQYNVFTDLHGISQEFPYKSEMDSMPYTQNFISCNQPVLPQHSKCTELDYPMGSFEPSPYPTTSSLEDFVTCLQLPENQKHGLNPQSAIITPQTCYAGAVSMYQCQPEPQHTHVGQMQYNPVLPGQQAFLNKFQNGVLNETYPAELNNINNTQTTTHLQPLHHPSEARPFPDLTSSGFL
UniProt P37231: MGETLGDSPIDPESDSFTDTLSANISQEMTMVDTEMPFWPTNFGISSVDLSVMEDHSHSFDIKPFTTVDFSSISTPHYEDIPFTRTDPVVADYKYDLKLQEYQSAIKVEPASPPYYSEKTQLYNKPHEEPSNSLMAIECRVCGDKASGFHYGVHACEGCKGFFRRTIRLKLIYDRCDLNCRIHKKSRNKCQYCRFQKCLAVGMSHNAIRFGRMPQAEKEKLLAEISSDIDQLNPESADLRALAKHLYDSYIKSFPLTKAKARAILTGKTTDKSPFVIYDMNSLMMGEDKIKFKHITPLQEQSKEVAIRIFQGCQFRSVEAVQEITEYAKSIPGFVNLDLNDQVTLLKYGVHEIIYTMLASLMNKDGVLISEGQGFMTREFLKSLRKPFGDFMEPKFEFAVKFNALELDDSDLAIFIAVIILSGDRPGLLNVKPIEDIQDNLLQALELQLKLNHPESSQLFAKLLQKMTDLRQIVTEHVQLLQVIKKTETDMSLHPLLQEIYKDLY

Columns and labels:
[1] = target: Androgen receptor (Homo sapiens) (UniProt P10275); experiment: qHTS assay to identify small molecule antagonists of the androgen receptor (AR) signaling pathway (AID 743035; active = well fitted inhibition curve with a large enough effect in the signal ratio in the repeat runs, not every such curve was filed as active; inconclusive = weak or mixed curves, or effect the other way; inactive = no such curve, though single readings can be large or run the other way; the % refers to the signal ratio)
[2] = target: Androgen receptor (Homo sapiens) (UniProt P10275); experiment: qHTS assay to identify small molecule agonists of the androgen receptor (AR) signaling pathway (AID 743036; active = well fitted activation curve with a large enough effect in the signal ratio in the repeat runs, with a control signal flat, not every such curve was filed as active; inconclusive = weak or mixed curves, or effect the other way; inactive = no such curve, though single readings can be large or run the other way; the % refers to the signal ratio); settings: HEK293 AR-UAS-bla GripTite, beta-lactamase FRET ratio, 16 h; at 62.4 µM (top of the series)
[3] = target: Androgen receptor (Homo sapiens) (UniProt P10275); experiment: qHTS assay to identify small molecule agonists of the androgen receptor (AR) signaling pathway using the MDA cell line (AID 743040; note: nearly all actives have a fitted effect of over 20% in size); settings: MDA-kb2 AR-luc cells, MMTV luciferase, 16 h; at 70.3 µM (top of the series); hits give high values
[4] = qHTS assay to identify small molecule antagonists of the androgen receptor (AR) signaling pathway using the MDA cell line - cell viability counter screen (AID 743041; note: nearly all actives have a fitted effect of over 45% in size)
Outline: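 MDA-kb2 AR-luc cells (MMTV-luciferase, AR/GR responsive) treated with compounds plus R1881 agonist for 16 h at 37C. CellTiter-Fluor added at 15.5 h; fluorescence read after 30 min in the same wells.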

[5] = target: Androgen receptor (Homo sapiens) (UniProt P10275); experiment: qHTS assay to identify small molecule antagonists of the androgen receptor (AR) signaling pathway using the MDA cell line (AID 743042; note: nearly all actives have a fitted effect of over 55% in size)
[6] = qHTS assay to identify small molecule antagonists of the thyroid receptor (TR) signaling pathway (AID 743065); note: nearly all actives have a fitted effect of over 55% in size
Outline: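 GH3.TRE-Luc rat pituitary cells (two TREs driving luciferase) were dosed with compound, then stimulated with 1 nM T3 (final) for 23.5 h at 37 C. ONE-Glo luminescence was the read-out, with CellTiter-Fluor fluorescence as the cytotoxicity counter-screen.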

[7] = tested on: thyroid hormone receptor (rat, GH3 cells); experiment: qHTS assay to identify small molecule agonists of the thyroid receptor (TR) signaling pathway (AID 743066; calls by dose curve); settings: GH3.TRE-Luc cells, TR agonist luciferase, 24 h; at 83.9 µM (top of the series) unless noted
[8] = target: Estrogen receptor (Homo sapiens) (UniProt P03372); experiment: qHTS assay to identify small molecule antagonists of the estrogen receptor alpha (ER-alpha) signaling pathway (AID 743069; active = well fitted curve in the direction sought with a large enough effect in the signal ratio in the repeat runs, not every such curve was filed as active; inconclusive = weak or mixed curves, or effect the other way; inactive = no such curve, though single readings can be large or run the other way; the % refers to the signal ratio; note: potency is the fitted concentration of half-maximal effect)
Outline: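 HEK293 ER-alpha-UAS-bla GripTite cells, held overnight in 2% charcoal-stripped FBS, 5,000 cells/well, preincubated 4 h, then compound plus 17beta-estradiol for 18 h at 37C. Beta-lactamase read by LiveBLAzer B/G FRET substrate, 2 h at room temperature.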

[9] = target: Estrogen receptor (Homo sapiens) (UniProt P03372); experiment: qHTS assay to identify small molecule agonists of the estrogen receptor alpha (ER-alpha) signaling pathway (AID 743075; calls by dose curve)
[10] = target: Estrogen receptor (Homo sapiens) (UniProt P03372); experiment: qHTS assay to identify small molecule agonists of the estrogen receptor alpha (ER-alpha) signaling pathway using the BG1 cell line (AID 743079); note: nearly all actives have a fitted effect of over 20% in size; note: potency is the fitted concentration of half-maximal effect
[11] = qHTS assay to identify small molecule antagonists of the estrogen receptor alpha (ER-alpha) signaling pathway using the BG1 cell line (AID 743080; calls by dose curve;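 note: BG1 cells stimulated with 17beta-estradiol alongside compound; nearly all actives have a fitted effect of over 25% in size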); settings: BG1Luc4E2 ERE-luciferase antagonist mode, luminescence; at 70.3 µM (top of the series) unless noted
Outline: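 Seeding, 24 h rest, compound transfer from DMSO, 17beta-estradiol addition, 21.5 h incubation, CellTiter-Fluor (30 min, 37 C), then ONE-Glo (30 min, room temperature): this sequence was run on BG1-Luc-4E2 reporter cells.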

[12] = qHTS assay to identify small molecule antagonists of the estrogen receptor alpha (ER-alpha) signaling pathway using the BG1 cell line - cell viability counter screen (AID 743081);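 note: compound given together with 17beta-estradiol as the ER stimulus; nearly all actives have a fitted effect of over 45% in size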
[13] = target: Aromatase (Homo sapiens) (UniProt P11511); experiment: qHTS assay to identify aromatase inhibitors (AID 743083); note: nearly all actives have a fitted effect of over 55% in size
[14] = qHTS assay to identify aromatase inhibitors - cell viability counter screen (AID 743084);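 note: cells stimulated with testosterone during compound exposure; nearly all actives have a fitted effect of over 55% in size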
[15] = target: Aryl hydrocarbon receptor (Homo sapiens) (UniProt P35869); experiment: qHTS assay to identify small molecule that activate the aryl hydrocarbon receptor (AhR) signaling pathway (AID 743085);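 note: HG2L7.5c1 human HepG2 liver cells with stably integrated DRE-driven firefly reporter; nearly all actives have a fitted effect of over 15% in size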
[16] = target: Peroxisome proliferator-activated receptor gamma (Homo sapiens) (UniProt P37231); experiment: qHTS assay to identify small molecule antagonists of the peroxisome proliferator-activated receptor gamma (PPARg) signaling pathway (AID 743191; calls by dose curve; note: nearly all actives have a fitted effect of over 30% in size); settings: HEK293H PPARg-UAS-bla, beta-lactamase ratio, antagonist, 17 h; at 62.6 µM (top of the series) unless noted
[17] = qHTS assay to identify small molecule antagonists of the peroxisome proliferator-activated receptor gamma (PPARg) signaling pathway - cell viability counter screen (AID 743194); note: nearly all actives have a fitted effect of over 55% in size
Outline: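 Cytotoxicity counter screen in PPARg-bla HEK293H cells, same wells as reporter assay. Compounds plus 50 nM rosiglitazone (final) for 17 h at 37 C, then viability read by CellTiter-Glo luminescence.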

[18] = qHTS assay for small molecule activators of the heat shock response signaling pathway - cell viability counter screen (AID 743209); note: nearly all actives have a fitted effect of over 50% in size; note: potency is the fitted concentration of half-maximal effect
Outline: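 Counter screen for cytotoxicity in HeLa HSE-bla reporter cells. Treatment was 5 h at 37 C; viability was detected by luminescent ATP assay (CellTiter-Glo) in the same wells as the beta-lactamase read.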

[19] = qHTS assay for small molecule activators of the heat shock response signaling pathway (AID 743210; active = well fitted activation curve with a large enough effect in the signal ratio in the repeat runs, with a control signal flat, not every such curve was filed as active; inconclusive = weak or mixed curves; the % refers to the signal ratio); settings: HeLa HSE-bla reporter, beta-lactamase ratio, 5 h; at 62.6 µM (top of the series) unless noted
Outline: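 HSE-bla HeLa cells (beta-lactamase reporter under heat shock response elements), plated overnight, then exposed to compounds 5 h at 37 C; LiveBLAzer B/G FRET substrate added, 2.5 h at room temperature, fluorescence intensity read.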

[20] = qHTS assay to identify small molecule antagonists of the estrogen receptor alpha (ER-alpha) signaling pathway - cell viability counter screen (AID 743074; calls by dose curve;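 note: HEK293 cells carrying ER-alpha-UAS-bla reporter stimulated with 17beta-estradiol; nearly all actives have a fitted effect of over 45% in size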)

SMILES	Potency [1]	activation [2]	activity change [3]	Potency [4]	Potency [5]	Potency [6]	activation [7]	Potency [8]	Potency [9]	Potency [10]	activity change, negative = inhibition [11]	Potency [12]	Potency [13]	Potency [14]	Potency [15]	ratio activity, negative = inhibition [16]	Potency [17]	Potency [18]	activation [19]	Potency [20]
O=[P+](Oc1ccccc1)Oc1ccccc1	inactive	inactive: -8.87%	inactive: 1.08%	inactive	inactive	inactive	inactive: -0.242%	inactive	inactive	active: 34.2 µM	inactive: 0.765%	inactive	inactive	inactive	inactive	inactive: 12%	inactive	inactive	inactive: -0.0761%	–
O=[p+]1oc2ccccc2c2ccccc21 (stereo not given)	–	–	–	inactive	–	inactive	inactive: 0.75%	inactive	inactive	inactive	inactive: 7.96%	inactive	inactive	inactive	inactive	inactive: 11.9%	inactive	inactive	inactive: -0.74%	inactive
ClP(Cl)c1ccccc1	–	–	–	inactive	–	inactive	inactive: 2.84%	inactive	inactive	inactive	inactive: -6.61%	inactive	inactive	inactive	–	inactive: 3.63%	–	inactive	inactive: 1.46%	inactive
NC(=O)Nc1ccc([As](=O)(O)O)cc1	inactive	inactive: 4.57% and inactive: 2%	inactive: -0.247% and inactive: 1.99%	inactive	inactive	inactive	inactive: 0.299% and inactive: 0.492%	–	–	–	–	–	inactive	inactive	inactive	–	inactive	inactive	inactive: -0.446% and inactive: -0.86%	inactive
CCCCCCCCCCCCCC[P+](CCCCCC)(CCCCCC)CCCCCC	–	–	–	–	–	–	inactive: -8.34%	active: 0.615 µM [inconclusive]	–	–	–	–	–	–	inactive	–	–	active: 6.9 µM	–	–
O=[N+]([O-])c1ccc(S(=O)(=O)O)c([N+](=O)[O-])c1	–	–	–	inactive	–	–	–	–	–	–	–	inactive	inactive	inactive	inactive	–	inactive	inactive	–	inactive
